Assay in all cases: Fluorimetric PPyrPM assay for group 1B PLA2 inhibition (Example 12)
Experiment [1] deals with porcine group 1B PLA2 (pps PLA2) (Sus scrofa, UniProt P00592). The class given is biochemical. The settings on record: read-out: ILYPSA IC50 pps PLA2; porcine pancreas secreted PLA2. The source says: (§1) In this example, a fluorimetric assay procedure was used to evaluate the indole and indole-related compounds of the invention as inhibitors of group 1B phospholipase A2 (PLA2) from human, mouse and porcine. A description of this assay is found in articles: Leslie, C C and Gelb, M H (2004) Methods in Molecular Biology “Assaying phospholipase A2 activity”, 284:229-242; Singer, A G, et al. (2002) Journal of Biological Chemistry “Interfacial kinetic and binding properties of the complete set of human and mouse groups I, II, V, X, and XII secreted phospholipases A2”, 277:48535-48549, which are incorporated herein as references.
(§2) In general, this assay used a phosphatidylmethanol substrate with a pyrene fluorophore on the terminal end of the sn-2 fatty acyl chain. Without being bound by theory, close proximity of the pyrenes from neighboring phospholipids in a phospholipid vesicle caused the spectral properties to change relative to that of monomeric pyrene. […] The effect of a given inhibitor and inhibitor concentration on human, mouse and porcine phospholipase was determined. […]
The following procedure was performed to evaluate the inhibitory potency of the evaluated compounds. • 14. […] The fluorescence was read using an excitation of 342 nm and an emission of 395 nm.
Evaluated compounds were tested in duplicate and their values were averaged to plot the inhibition curve and calculate the IC50. […]

By UniProt entry, the sequences of proteins in these tests, tags left out. Residues count along the entry.
UniProt P00592, 23-146 limits assumed: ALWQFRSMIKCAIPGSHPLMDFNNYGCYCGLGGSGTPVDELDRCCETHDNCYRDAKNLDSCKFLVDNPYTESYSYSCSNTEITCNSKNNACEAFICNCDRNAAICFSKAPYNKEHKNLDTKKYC
UniProt Q9Z0Y2, 23-146 limits assumed: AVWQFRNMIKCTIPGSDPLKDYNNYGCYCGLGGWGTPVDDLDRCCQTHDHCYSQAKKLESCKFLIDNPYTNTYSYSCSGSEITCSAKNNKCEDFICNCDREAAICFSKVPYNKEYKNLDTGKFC
UniProt P04054, 23-148 limits assumed: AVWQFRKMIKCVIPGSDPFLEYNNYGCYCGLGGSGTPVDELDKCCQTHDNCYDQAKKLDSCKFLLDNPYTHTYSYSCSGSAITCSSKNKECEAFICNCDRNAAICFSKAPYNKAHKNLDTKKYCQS

The target of experiment [2] is mouse group 1B PLA2 (mps PLA2) (Mus musculus, UniProt Q9Z0Y2). As to conditions: read-out: ILYPSA IC50 mps PLA2; mouse pancreas secreted PLA2.
From the text: as §1
as §2, with “pyrene. Bovine serum albumin was present in the aqueous phase and captured the pyrene fatty acid when it is liberated from the glycerol backbone owing to the PLA2-catalyzed reaction.” for “pyrene.”
(§3) The following procedure was performed to evaluate the inhibitory potency of the evaluated compounds. • 14. […]

Experiment [3] deals with human group 1B PLA2 (hps PLA2) (Homo sapiens, UniProt P04054). The settings on record: read-out: ILYPSA IC50 hps PLA2; human pancreas secreted PLA2.
From the text: as §1
as §2, with “pyrene. Bovine serum albumin was present in the aqueous phase and captured the pyrene fatty acid when it is liberated from the glycerol backbone owing to the PLA2-catalyzed reaction.” for “pyrene.”
as §3

This passage reports IC50 results from patent publication US20070135383A1, “Phospholipase inhibitors, including multi-valent phospholipase inhibitors, and use thereof, including as lumen-localized phospholipase inhibitors” (priority 2005, published 2007).

Regarding `Cc1c(C(=O)C(N)=O)c2c(OCC(=O)O)cc([N+](=O)[O-])cc2n1Cc1ccccc1`, the IC50 worked out at 0.07 µM in experiment [1], 1.08 µM in experiment [2] and 2.8 µM in experiment [3].
